# Binding of CDR-mutated scFvs to a peptide of the spike HR2 region

Antigen: PDVDLGDISGINAS, a 14-residue peptide of the SARS-CoV-2 spike HR2 region.

Each scFv is VL, three GGGGS repeats, VH, as in the parent Ab-91, and differs from it in the CDRs of the heavy chain only.
VL: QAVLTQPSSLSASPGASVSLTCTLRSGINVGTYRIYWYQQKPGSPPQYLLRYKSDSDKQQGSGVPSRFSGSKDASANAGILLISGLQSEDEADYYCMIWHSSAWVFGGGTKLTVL
VH: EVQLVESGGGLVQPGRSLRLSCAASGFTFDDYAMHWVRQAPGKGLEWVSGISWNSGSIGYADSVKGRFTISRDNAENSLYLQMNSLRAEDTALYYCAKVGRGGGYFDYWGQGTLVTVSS

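Phage display of a naive human antibody library on the peptide gave the parent. Library AAYL51 holds single substitutions and randomly drawn double and triple substitutions in the CDRs. Affinity was read by AlphaSeq, a pooled yeast mating assay with surface-displayed partners. Pairs that bind mate more often; barcode pairs of the diploids are counted by sequencing. The ratio of observed to expected reads was calibrated, replicate by replicate, on BCL2-family standards whose Kd was known from biolayer interferometry. Each pool was mated in three replicate cultures.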

Positions count from residue 1 of the parent VH; G50H puts H in place of G. All variants listed here change G50 of the VH, counted from its first residue. Each Kd is an estimate from the mating assay, the geometric mean of the replicates in which the pair was seen; lower is stronger. A pair that was not seen in any replicate is written "nd"; this usually means weak binding, but a binder can also be missed.

* G50H+Y60W+D62S = 82 µM (1 of 3 replicates; controls 3 of 9)
* G50H+G56H+I58P = nd (0 of 3 replicates; controls 0 of 9)
* G50K+Y60W+S63L = 140 µM (2 of 3 replicates; controls 7 of 9)
* G50Y+S55Q = nd (0 of 3 replicates; controls 3 of 9)
* G50Y+K65D+G104W = nd (0 of 3 replicates; controls 0 of 9)
* Y32Q+G50K+R101G = 110 µM (2 of 3 replicates; controls 3 of 9)
* G50A+G56T+G59E = nd (0 of 3 replicates; controls 2 of 9)
* Y32D+G50F = nd (0 of 3 replicates; controls 0 of 9)
* G50R+F106C = 41 µM (1 of 3 replicates; controls 2 of 9)
* G50T+S55I+F106L = 100 µM (1 of 3 replicates; controls 3 of 9)
* G50C+R101Q = 260 µM (2 of 3 replicates; controls 3 of 9)
* G50N+D62R+Y105M = nd (0 of 3 replicates; controls 1 of 9)
* G50A+S57M+D62W = nd (0 of 3 replicates; controls 0 of 9)
* D31T+G50V+Y108N = nd (0 of 3 replicates; controls 0 of 9)
* G50A+S52I+N54S = 1.1 µM (1 of 3 replicates; controls 0 of 9)
* A33L+G50Y+S52V = 31 µM (3 of 3 replicates; controls 2 of 9)
* G50R+I51P = 210 µM (2 of 3 replicates; controls 3 of 9)
* Y32F+G50D+N54T = 4.9 µM (1 of 3 replicates; controls 4 of 9)
* G50T+A61H = 370 µM (1 of 3 replicates; controls 2 of 9)
* G50Y+G100V+R101G = nd (0 of 3 replicates; controls 0 of 9)
* G50Q+S52A = nd (0 of 3 replicates; controls 3 of 9)
* D31K+G50F+G102N = 6.7 µM (1 of 3 replicates; controls 0 of 9)
* G50N+S63P = nd (0 of 3 replicates; controls 0 of 9)
* G50Q+I51A+R101T = 78 µM (1 of 3 replicates; controls 1 of 9)
* G50I+D62K+D107A = nd (0 of 3 replicates; controls 0 of 9)
* G50H+K65C+G102C = nd (0 of 3 replicates; controls 3 of 9)
* G50E+D107N = nd (0 of 3 replicates; controls 2 of 9)
* A33N+G50F+G100T = nd (0 of 3 replicates; controls 0 of 9)
* H35D+G50Q+D62M = 2.3 µM (1 of 3 replicates; controls 1 of 9)
* G50D+S55F+G103M = nd (0 of 3 replicates; controls 2 of 9)
* G50S+G56V+S63M = 8.9 µM (1 of 3 replicates; controls 1 of 9)
* D31G+G50W+R101Y = 8.4 µM (2 of 3 replicates; controls 2 of 9)
* H35L+G50M+Y60I = 190 µM (2 of 3 replicates; controls 5 of 9)
* F29C+G50C+Y60Q = nd (0 of 3 replicates; controls 0 of 9)
* G50C+I58T+D62C = nd (0 of 3 replicates; controls 0 of 9)
* T28C+G50E+F106E = 230 µM (3 of 3 replicates; controls 7 of 9)
* H35V+G50T = 1.9 µM (2 of 3 replicates; controls 0 of 9)
* G26P+G50F = nd (0 of 3 replicates; controls 0 of 9)
* H35E+G50W = 140 µM (2 of 3 replicates; controls 0 of 9)
* G50Q+G56H+S63N = nd (0 of 3 replicates; controls 1 of 9)
* G50W+W53L+S63Y = nd (0 of 3 replicates; controls 0 of 9)
* G26D+D31R+G50A = 140 µM (2 of 3 replicates; controls 1 of 9)
* D30W+G50K+D107Q = nd (0 of 3 replicates; controls 3 of 9)
* G50W+G100A = nd (0 of 3 replicates; controls 0 of 9)
* Y32T+G50E+S57N = 2.1 µM (1 of 3 replicates; controls 1 of 9)
* G50S+G100R+G103V = nd (0 of 3 replicates; controls 0 of 9)
* G50H+A61K = nd (0 of 3 replicates; controls 3 of 9)
* Y32G+G50R+V64M = nd (0 of 3 replicates; controls 0 of 9)
* Y32W+G50N = 1.1 mM (1 of 3 replicates; controls 1 of 9)

For reference, 8 entries of the list once more:

* G50Q+I51A+R101T -> 78 µM (1 of 3 replicates; controls 1 of 9)
* G50I+D62K+D107A -> nd (0 of 3 replicates; controls 0 of 9)
* A33L+G50Y+S52V -> 31 µM (3 of 3 replicates; controls 2 of 9)
* G50A+S52I+N54S -> 1.1 µM (1 of 3 replicates; controls 0 of 9)
* G50S+G100R+G103V -> nd (0 of 3 replicates; controls 0 of 9)
* Y32F+G50D+N54T -> 4.9 µM (1 of 3 replicates; controls 4 of 9)
* D31K+G50F+G102N -> 6.7 µM (1 of 3 replicates; controls 0 of 9)
* G50D+S55F+G103M -> nd (0 of 3 replicates; controls 2 of 9)

For reference, the parent read 72 nM as the reference entry and 7.5 nM as a member of this library. Nonspecific signal, from three strains lacking the peptide, appeared in 21% of pairings of library AAYL51, centred on 34 µM (5% of these signals below 1.8 µM); values are not corrected for it. The control count says in how many pairings with the empty strains this scFv gave a signal.

Data: MIT Lincoln Laboratory AlphaSeq set, Engelhart et al. 2022, doi:10.1038/s41597-022-01779-4, as distributed in FLAb.